# Laboratory results reported in ChEMBL document CHEMBL1641586, “Stereospecific synthesis and structure-activity relationships of unsymmetrical 4,4-diphenylbut-3-enyl derivatives of nipecotic acid as GAT-1 inhibitors” (Bioorg Med Chem Lett, 2011).
# Sequences of proteins named here, by UniProt entry; tags and fusion partners are left off. A change or cut given only in a name is not applied to a line headed by its entry.
# UniProt P30531: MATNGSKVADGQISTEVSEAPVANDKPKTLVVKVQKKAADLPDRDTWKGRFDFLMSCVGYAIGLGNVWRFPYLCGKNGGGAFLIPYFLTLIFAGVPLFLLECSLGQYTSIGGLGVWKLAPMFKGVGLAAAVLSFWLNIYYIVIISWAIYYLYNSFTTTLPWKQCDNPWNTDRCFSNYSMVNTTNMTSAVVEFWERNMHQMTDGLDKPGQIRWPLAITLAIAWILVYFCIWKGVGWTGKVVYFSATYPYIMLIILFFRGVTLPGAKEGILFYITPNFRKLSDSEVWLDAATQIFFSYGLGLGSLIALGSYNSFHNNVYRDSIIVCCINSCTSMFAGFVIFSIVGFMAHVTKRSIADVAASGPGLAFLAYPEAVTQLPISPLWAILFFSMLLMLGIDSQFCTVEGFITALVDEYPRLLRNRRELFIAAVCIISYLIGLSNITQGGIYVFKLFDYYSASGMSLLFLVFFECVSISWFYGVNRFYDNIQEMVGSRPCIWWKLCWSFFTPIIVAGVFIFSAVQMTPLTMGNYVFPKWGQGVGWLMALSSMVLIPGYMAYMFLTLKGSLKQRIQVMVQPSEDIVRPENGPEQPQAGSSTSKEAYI
# Biological target: Sodium- and chloride-dependent GABA transporter 1 (Homo sapiens, UniProt P30531)
# Assay: Displacement of [3H]Tiagabine from human recombinant GAT1 expressed in HEK293 cells by equilibrium binding assay
# Type: cell-based
compound,measurement,value
O=C(O)[C@@H]1CCCN(CCC=C(c2ccccc2)c2ccccc2)C1,Ki,0.0724 µM
